Experimental data taken from patent US20130053410A1, “SUBSTITUTED HETEROARYL 2',3',7',7A'-TETRAHYDROSPIRO[PYRROLE-3,6'-PYRROLO[1,2-C]IMIDAZOLE]-1',2(1H,5'H)-DIONE” (priority 2011, published 2013).

Amino acid sequences for entries named in this document (tags omitted).
UniProt Q00987, whole entry: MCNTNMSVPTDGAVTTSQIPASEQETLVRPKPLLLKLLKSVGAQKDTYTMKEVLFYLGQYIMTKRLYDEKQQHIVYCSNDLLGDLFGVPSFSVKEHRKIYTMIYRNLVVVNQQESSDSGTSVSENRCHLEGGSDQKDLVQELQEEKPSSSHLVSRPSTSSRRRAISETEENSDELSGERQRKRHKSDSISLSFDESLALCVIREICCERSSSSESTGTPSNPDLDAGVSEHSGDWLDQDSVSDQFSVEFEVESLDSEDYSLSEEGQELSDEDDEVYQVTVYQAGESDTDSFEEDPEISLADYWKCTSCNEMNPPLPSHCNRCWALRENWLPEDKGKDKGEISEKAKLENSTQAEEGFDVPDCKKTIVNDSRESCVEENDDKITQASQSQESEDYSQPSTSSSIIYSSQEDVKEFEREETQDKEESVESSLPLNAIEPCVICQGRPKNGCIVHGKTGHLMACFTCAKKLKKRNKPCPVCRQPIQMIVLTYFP

Biological target: interaction between p53 and MDM2 proteins (recombinant GST-tagged MDM2, biotinylated p53 peptide) (Homo sapiens, UniProt Q00987)
Test: HTRF assay of inhibition of the p53-MDM2 interaction
Details: read-out: IC50: bsa: 0.02%
Procedure: The ability of the compounds to inhibit the interaction between p53 and MDM2 proteins was measured by an HTRF (homogeneous time-resolved fluorescence) assay in which recombinant GST-tagged MDM2 binds to a peptide that resembles the MDM2-interacting region of p53. Binding of GST-MDM2 protein and p53-peptide (biotinylated on its N-terminal end) is registered by the FRET (fluorescence resonance energy transfer) between Europium (Eu)-labeled anti-GST antibody and streptavidin-conjugated Allophycocyanin (APC).
[…] Add 10 uL diluted compounds (1:5 dilution in reaction buffer) to each well, mix by shaking. Add 20 uL biotinylated p53 peptide (180 nM working solution) in reaction buffer to each well and mix on shaker. Incubate at 37° C. for 1 h. Add 20 uL streptavidin-APC and Eu-anti-GST antibody mixture (6 nM Eu-anti-GST and 60 nM streptavidin-APC working solution) in TBS buffer with 0.2% BSA, shake at room temperature for 30 minutes and read using a TRF-capable plate reader at 665 and 615 nm (Victor 5, Perkin ElmerWallac). If not specified, the reagents were purchased from Sigma Chemical Co.

COc1cc(C(=O)O)ccc1N1CN2[C@@H](CC(C)(C)C)[C@@]3(C(=O)Nc4cccnc43)[C@@H](c3cccc(Cl)c3F)[C@@H]2C1=O (relative stereo)
IC50: 484 nM

COc1cc(N2CN3[C@@H](CC(C)(C)C)[C@@]4(C(=O)Nc5ccncc54)[C@@H](c4cccc(Cl)c4F)[C@@H]3C2=O)ccc1C(N)=O (relative stereo)
IC50: 103 nM
